These are literature values, as cited in article PMC5903241 (British Journal of Clinical Pharmacology, 2018).

For the data set the following is noted: twice-daily (b.i.d.) dosing; sacubitril/valsartan and its analytes; cited from earlier work.

A value given as a limit tells only on which side of the number the result lay.

Regarding sacubitril/valsartan, the “time to reach steady state” value was not above 3 days.
